Data on one substance can be found in US9910050B2, “Mutant smoothened and methods of using the same” (Curis, Inc., priority 2009, dated 2018).

Amino acid sequences for entries named in this document (tags omitted). Residues count along the entry.
UniProt Q99835, 28-787 D473H: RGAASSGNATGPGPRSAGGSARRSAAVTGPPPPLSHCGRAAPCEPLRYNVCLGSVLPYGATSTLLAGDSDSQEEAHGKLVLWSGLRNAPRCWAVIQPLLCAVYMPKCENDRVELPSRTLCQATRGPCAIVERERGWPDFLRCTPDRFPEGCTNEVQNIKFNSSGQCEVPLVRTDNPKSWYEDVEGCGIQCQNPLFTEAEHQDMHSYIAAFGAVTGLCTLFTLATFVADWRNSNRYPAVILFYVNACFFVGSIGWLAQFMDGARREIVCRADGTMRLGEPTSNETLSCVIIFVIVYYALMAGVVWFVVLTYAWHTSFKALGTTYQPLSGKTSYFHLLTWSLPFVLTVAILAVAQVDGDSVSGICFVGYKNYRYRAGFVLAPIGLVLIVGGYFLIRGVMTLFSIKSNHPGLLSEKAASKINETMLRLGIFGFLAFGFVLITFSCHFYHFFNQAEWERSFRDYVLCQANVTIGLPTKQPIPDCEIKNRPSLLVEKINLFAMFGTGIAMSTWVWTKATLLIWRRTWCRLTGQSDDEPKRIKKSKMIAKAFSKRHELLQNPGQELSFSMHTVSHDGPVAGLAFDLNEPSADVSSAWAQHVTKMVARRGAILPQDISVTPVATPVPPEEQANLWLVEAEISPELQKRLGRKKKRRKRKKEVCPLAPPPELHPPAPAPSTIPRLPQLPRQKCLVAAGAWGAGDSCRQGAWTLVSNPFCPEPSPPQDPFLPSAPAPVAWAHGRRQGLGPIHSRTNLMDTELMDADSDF

The experiment has as its target T1, SMO-D473H (Homo sapiens, UniProt Q99835, D473H).
T1 construct: expressed in transfected cells; host or cells: C3H10T½ cells (reporter assay)
The experiment can be described thus: Gli-luciferase reporter assay in C3H10T½ cells transfected with SMO-D473H. The class given is cell-based. Here is the method:
For the PTCH1 inhibition experiments, cells were transfected with an additional 200 ng of DNA containing varying ratios of PTCH1 to eGFP expression constructs. For the NF-κB and SV40 reporter assays, Gli-BS was replaced with either pGL4.32 or pGL3-Promoter. Six hours later, cells were collected by trypsin treatment and each well was redistributed over four wells of a 12-well plate. The FBS content of the culture medium was reduced to 0.5% the following morning to induce formation of primary cilia, and small molecule Hh inhibitors were added at indicated concentrations. […] Values were divided by Renilla luciferase activities to normalize for transfection efficiency and are shown as the mean of three separate experiments±1 standard deviation.
In general terms: In a reporter assay the amount or activity of a reporter protein is the signal.

Consider KAAD-cyclopamine, for which the “change in IC50, SMO-D473H versus SMO-WT” value (GLI-luciferase reporter activity) is reported as 43 fold. Further, the “activity against SMO-D473H, inhibition of Gli-luciferase activity” value (screen at 1 μM compound) is listed as “fully inhibits Smo-D473H”.
